In patent US20090036518A1, “PHARMACEUTICAL COMPOSITION CONTAINING FLAVONOIDS” (TAIPEI MEDICAL UNIVERSITY, priority 2005, published 2009):

Test system: high affinity rolipram binding sites (HARBS) of the PDE4 (PDE4H)
Assay: Assay II: replacement of [3H]-rolipram bound on particulate HARBS of whole brain
Parameters: species or system guinea pig
Conditions: ratio of HARBS EC50 to PDE4 IC50
Protocol: The binding experiments are carried on basis of the methods of Schneider et al and Zhao et al with a small modification. Under a protocol approved by the Animal Care and Use Committee of Taipei Medical University, five male guinea pigs (Hartley), weighing 500-600 g, are anesthetized. The whole brains taken therefrom are homogenized with in 10 volumes of cold medium (pH 6.5) containing 20 mM Bis-tris, 2 mM benzamidine, 2 mM EDTA, 50 mM sodium chloride, 0.1 mM phenylmethanesulfonyl fluoride (PMSF), and 1 mM dithiothreitol. At 4[…], the homogenate is centrifuged at 170 g for 15 min for removing blood vessels and connective tissues, and the supernatant thereof is then re-centrifuged at 40,000 g for 30 min for separating the particulates from the cytosol of cells.
The final concentration of [^3H]-rolipram is 2 nM. […] After incubation, the reaction is stopped by transferring the reaction vessel to a bath of crashed ice. Then the reaction mixture is filtered through a punched glass fiber filter (Whatman GF/B) placed in a mini funnel, which is adopted to a 1.5 ml of Eppendorff's tube for collecting the filtrate in the mini centrifuge at 1000 rpm (100 g) for 10 seconds. […] The Whatman GF/B filter is mixed with 2 ml of cocktail and counted by the β-scintillation counter (Backman, Fullerton, Calif., USA) for counting the radioactivity thereof.

O=c1c(-c2ccc(O)cc2)coc2cc(O)cc(O)c12 [Genistein]
PDE4H/PDE4L ratio (EC50/IC50): 5.05
